# Assay outcomes: PubChem, National Center for Advancing Translational Sciences (NCATS)
# Most compounds without a hit are left out; they make up all but 1.3% or so of the library.
# Rango-impB inh: prevents formation of the Rango-importin beta complex; Q14974; actives 0.031% (n = 340,000); Rango CFP/YFP FRET sensor + importin beta, 45 min; Potency, µM (highest dose often 92.2 µM), inactives show at the highest dose inhibition of complex formation;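 also: potency is read from the fitted curve at half-maximal effect; 0% = DMSO wells and 100% = buffer wells lacking importin beta; nearly all actives have a fitted effect of over 15% in size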
#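 Inhibition scored from the CFP 486 nm/YFP 530 nm FRET ratio 45 min after adding 0.125 microM importin beta to 50 nM Rango biosensor preincubated 5 min with compound (room temperature, PBS with DTT, Tween-20, BSA). No-importin wells as positive control.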
# KCNH2 WT inh: KCNH2 (human, wildtype) channel inhibition; Q12809; U2OS, BacMam KCNH2, thallium flux FluxOr; stronger effect = lower value; activity change, % at 1.84 µM; actives 0.37% (n = 340,000); AID 720551;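 active = maximum activity change below -70%; inconclusive = maximum activity change between -70% and -50%; inactive = maximum activity change above -50%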; also: % is scaled to controls: 0 for no effect and ±100 for the full control effect
#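 U2OS cells were transduced with wild-type KCNH2 virus (2.03 x 10^8 / mL) for 4 h at room temperature, then cultured overnight at 37 C. Thallium flux was read with FluxOr dye. Rate constants were normalized to DMSO controls.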
# KCNH2 3.1 block: KCNH2 3.1 (human) potassium channel inhibition. actives 0.95% (n = 340,000). AID 720553. activity change, % (tested at about 1.8 µM). U2OS KCNH2 3.1, thallium flux FluxOr; stronger effect = lower value;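 active = maximum activity change below -70%; inconclusive = maximum activity change from -70% to -50%; inactive = maximum activity change above -50%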;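 also: thallium influx rate constant from kinetic fluorescence after stimulation buffer; % is scaled to controls: 0 for no effect and ±100 for the full control effect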
#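 Steps: virus added to U2OS suspension (4 h, RT, dark); medium with 10% FBS added, cells plated, 37 C overnight; FluxOr/Red40 loading buffer 45 min RT; stimulation buffer, 2 min kinetic read; rate constant normalized.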
# Rango dissoc inh: inhibition of RanGTP-driven Rango-importin beta dissociation. O95149+P62826. AID 540253. Potency, µM (top dose mostly 46.1 µM), without a hit: top-dose activity change, negative = inhibition. actives 0.071% (n = 340,000). Biochemical FRET Rango-importin beta, RanGTP-induced dissociation; also: potency is read from the fitted curve at half-maximal effect; % of control where 0% means no effect; nearly all actives have a fitted effect of over 45% in size
#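 FRET read at 45 min, room temperature: inhibitors block the CFP/YFP signal rise when RanGTP (0.6 uM Ran, 2 mM GTP, 0.2 uM RCC1) frees Rango (0.1 uM) from importin beta (0.25 uM). Pre-read after 5 min compound exposure flags interference.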
# Active calls of the source: *; i = inactive; ? = inconclusive; . = not tested or not shown. Unless noted, calls follow the shape of the full dose curve.
# Key to letters: A = Rango-impB inh; B = KCNH2 WT inh; C = KCNH2 3.1 block; D = Rango dissoc inh
COc1ccccc1-n1c(O)c(/C=N/NC(=S)Nc2ccccc2)c(=O)[nH]c1=S
  A: ?	B: -3	C: -93*	D: ?

CCn1c(O)c(/C=N/NC(=O)c2ccccc2)c(=O)[nH]c1=S
  A: ?	B: 1	C: -3	D: ?

COc1ccc(CN(CCc2c[nH]c3ccccc23)Cc2ccc(OC)cc2)cc1
  A: -2%	B: -43	C: -106*	D: -12%

COc1cccc(CNCCc2c[nH]c3ccccc23)c1
  A: 1%	B: 13	C: 3	D: 14%

NC(=O)c1ccc(OCCC(O)N2CC=C(c3ccc(F)cc3)CC2)cc1 (stereo not drawn)
  A: 9%	B: 72	C: -73*	D: 29%

Cc1ccc(Cn2nnnc2CN2CCC(n3nnc4cc(C(F)(F)F)ccc43)CC2)cc1
  A: 2%	B: ?	C: -93*	D: 12%

Cc1nc2cc(C(F)(F)F)ccc2n1C1CCN(Cc2nnnn2CCc2ccccc2)CC1
  A: 3%	B: -7	C: -81*	D: -1%

FC(F)(F)c1ccc2c(c1)nnn2C1CCN(Cc2nnnn2Cc2ccccc2)CC1
  A: 0%	B: -28	C: -76*	D: -12%

CC(C)C[C@H]1C(=O)N2CCC[C@H]2[C@]2(O)O[C@](NC(=O)[C@@H]3C=C4c5cccc6[nH]c(Br)c(c56)CC4N(C)C3)(C(C)C)C(=O)N12 (stereo partly drawn)
  A: 8%	B: 7	C: 3	D: -9%

C=CCn1c(O)c(C=Nc2ccc(Cc3ccncc3)cc2)c(=O)[nH]c1=S
  A: ?	B: -6	C: -7	D: -2%

COc1cccc(Cn2c(=O)oc3ccccc32)c1
  A: 0%	B: 0	C: 3	D: 8%

O=C(c1ccc(Cl)cc1)C1CCCN(Cc2cccc3cccnc23)C1 (stereo not drawn)
  A: 1%	B: -71*	C: -99*	D: -23%

COc1ccc(CN2CCCC(C(=O)c3ccc(Cl)cc3)C2)c(O)c1 (stereo not drawn)
  A: -5%	B: -31	C: -72*	D: -11%

Cc1cc(OCC(=O)NC2CCS(=O)(=O)C2)c2c3c(c(=O)oc2c1)CCC3 (stereo not drawn)
  A: -1%	B: -250*	C: -1	D: 12%

Cc1ccc(S(=O)(=O)N2CN3CCN(C3)C2)cc1
  A: 0%	B: -131*	C: -134*	D: -10%

COc1ccccc1N1CCN(Cc2ccccc2Cl)CC1
  A: -2%	B: 1	C: 5	D: -11%

COc1ccccc1N1CCN(Cc2ccc(Br)cc2)CC1
  A: 0%	B: 19	C: -76*	D: 7%

Cc1ccsc1C(=O)C1CCCN(Cc2ccc(-n3cccn3)cc2)C1 (stereo not drawn)
  A: -1%	B: 39	C: -72*	D: 13%

Cc1cc(-c2n[nH]c(=S)n2CC(C)C)cs1
  A: -3%	B: 2	C: -6	D: 12%

O=C(c1cc(F)ccc1F)C1CCCN(Cc2cccc(Cl)c2)C1 (stereo not drawn)
  A: 0%	B: .	C: 0	D: -10%

O=C(c1cc(F)ccc1F)C1CCCN(CCCc2ccccc2)C1 (stereo not drawn)
  A: -3%	B: 4	C: -101*	D: 1%

COc1ccc(CC(C)NCCC(c2ccccc2)c2ccccc2)cc1 (stereo not drawn)
  A: 12%	B: -96*	C: -101*	D: 1%

CCCCNC(C)Cc1ccccc1 (stereo not drawn)
  A: 0%	B: 1	C: 9	D: 0%

Cc1ccc(S(=O)(=O)N(C)C[C@H]2Oc3c(NC(=O)Nc4cccc5ccccc45)cccc3C(=O)N([C@@H](C)CO)C[C@@H]2C)cc1
  A: -2%	B: 11	C: 14	D: 20%

Cc1cc2ccccc2n1CCNC(=O)COc1ccccc1
  A: ?	B: 1	C: -4	D: ?

CCOC(=O)c1c(NC(=O)c2c(N)n(CCCOC)c3nc4ccccc4nc23)sc2c1CCCC2
  A: 5%	B: 4	C: -71*	D: 2%

Cc1cc(C)cc(N2C(=O)/C(=C\c3ccc(N4CCN(C)CC4)o3)C(=O)NC2=S)c1
  A: 52µM*	B: 1	C: -15	D: ?

C=CCN1C(=O)/C(=C/c2ccc(N3CCOCC3)o2)C(=O)NC1=S
  A: 58µM*	B: -3	C: -2	D: 1%

O=C1NC(=O)C(=Cc2ccc(N3CCOCC3)o2)C(=O)N1
  A: ?	B: i	C: -9	D: -13%

Cc1ccc(/C=C2\C(=O)NC(=S)N(c3ccc(F)cc3)C2=O)o1
  A: ?	B: -37	C: 8	D: ?

# Four neighbouring compounds out of the list so far, for reference:
# Key to letters: A = Rango-impB inh; B = KCNH2 WT inh; C = KCNH2 3.1 block; D = Rango dissoc inh
Cc1cc(C)cc(N2C(=O)/C(=C\c3ccc(N4CCN(C)CC4)o3)C(=O)NC2=S)c1
  A: 52µM*	B: 1	C: -15	D: ?

C=CCN1C(=O)/C(=C/c2ccc(N3CCOCC3)o2)C(=O)NC1=S
  A: 58µM*	B: -3	C: -2	D: 1%

O=C1NC(=O)C(=Cc2ccc(N3CCOCC3)o2)C(=O)N1
  A: ?	B: i	C: -9	D: -13%

Cc1ccc(/C=C2\C(=O)NC(=S)N(c3ccc(F)cc3)C2=O)o1
  A: ?	B: -37	C: 8	D: ?

# Next part.
# Key to letters: A = Rango-impB inh; B = KCNH2 WT inh; C = KCNH2 3.1 block; D = Rango dissoc inh
COc1ccc(C(=O)Nc2ccccc2-c2nnn(CC(=O)Nc3ccc4c(c3)OCCO4)n2)cc1
  A: ?	B: 5	C: 3	D: -4%

C[C@@H]1C(=O)O[C@H]2CC34[C@H]5C[C@@H](C(C)(C)C)[C@]36[C@@H](OC(=O)[C@@H]6O)O[C@@]4(C(=O)O5)[C@]21O (stereo partly drawn)
  A: -4%	B: -3	C: 13	D: 20%

CCN(CC)c1ccc(C=NN2CCCCCC2)cc1
  A: ?	B: 4	C: 8	D: 3%

CS(=O)(=O)c1ccc(C2=C(CNC(=O)c3ccncc3)[C@H]3CC[C@@H](C2)N3Cc2ccccc2)cc1
  A: .	B: ?	C: -91*	D: .

O=C(NCC1=C(c2cccc3ccccc23)C[C@@H]2CC[C@H]1N2Cc1ccco1)c1ccncc1
  A: .	B: 11	C: -4	D: .

CS(=O)(=O)c1ccc(C2=C(CNC(=O)c3cccs3)[C@H]3CC[C@@H](C2)N3CCOc2ccccc2)cc1
  A: .	B: -103*	C: -94*	D: .

O=C(NCC1=C(c2ccc3ccccc3c2)C[C@@H]2CC[C@H]1N2Cc1ccco1)c1nccs1
  A: .	B: 11	C: -38	D: .

CS(=O)(=O)c1ccc(C2=C(CNC(=O)c3cccnc3)[C@H]3CC[C@@H](C2)N3Cc2ccco2)cc1
  A: .	B: -13	C: -23	D: .

Cc1ncoc1C(=O)NCC1=C(c2ccc(S(C)(=O)=O)cc2)C[C@@H]2CC[C@H]1N2Cc1ccco1
  A: .	B: -6	C: -36	D: .

O=C(NCC1=C(c2cccc3ccccc23)C[C@@H]2CC[C@H]1N2Cc1ccco1)c1cccs1
  A: .	B: ?	C: -109*	D: .

CS(=O)(=O)c1ccc(C2=C(CNC(=O)c3nccs3)[C@H]3CC[C@@H](C2)N3CCOc2ccccc2)cc1
  A: .	B: ?	C: -78*	D: .

CCOC(=O)c1cccc(C2=C(CNC(=O)c3ccc([N+](=O)[O-])cc3)[C@H]3CC[C@@H](C2)N3Cc2ccccc2)c1
  A: .	B: -76*	C: -113*	D: .

Cc1ccc(S(=O)(=O)NCC(=O)OCC(=O)N2N=C(c3ccc(Cl)cc3)CC2c2ccco2)cc1C (stereo not drawn)
  A: -14%	B: 2	C: -3	D: 25%

Clc1ccccc1CN1CCN(c2cccc3[nH]ccc23)CC1
  A: 0%	B: 5	C: 18	D: -6%

CCCCCCN1CCN(c2ccccc2Cl)CC1
  A: 0%	B: -5	C: -79*	D: 2%

COc1ccc(-n2c(/C=C/c3ccc(O)cc3)nc3ccccc3c2=O)cc1
  A: ?	B: -93*	C: -22	D: -7%

O=C1NCCN(Cc2cccc(Oc3ccccc3)c2)C1CC(=O)N1CCCCC1 (stereo not drawn)
  A: ?	B: 3	C: -11	D: -29%

OC(COCc1ccc(Cl)cc1)CN1CC=C(c2ccccc2)CC1 (stereo not drawn)
  A: -1%	B: ?	C: -112*	D: 2%

COC(=O)C1=C(c2ccccc2OCc2ccccc2)C[C@@H]2CC[C@H]1N2C(=O)NCc1ccc(N(C)C)cc1
  A: 1%	B: -13	C: -116*	D: 17%
